From patent US20110195433A1 (priority 2007, published 2011)

Sequences of proteins named here, by UniProt entry; tags and fusion partners are left off. A change or cut given only in a name is not applied to a line headed by its entry.
UniProt P35372, whole entry: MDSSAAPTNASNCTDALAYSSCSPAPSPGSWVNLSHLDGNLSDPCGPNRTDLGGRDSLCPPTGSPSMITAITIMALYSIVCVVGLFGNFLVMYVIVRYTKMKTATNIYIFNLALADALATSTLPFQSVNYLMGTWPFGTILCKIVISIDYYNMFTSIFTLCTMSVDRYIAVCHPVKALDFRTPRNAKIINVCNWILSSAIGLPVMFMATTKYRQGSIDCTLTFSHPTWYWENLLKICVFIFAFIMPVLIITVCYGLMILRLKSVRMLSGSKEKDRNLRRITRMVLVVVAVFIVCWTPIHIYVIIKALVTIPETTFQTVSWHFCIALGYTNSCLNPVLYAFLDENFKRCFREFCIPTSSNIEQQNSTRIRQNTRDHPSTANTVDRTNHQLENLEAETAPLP
UniProt P41145: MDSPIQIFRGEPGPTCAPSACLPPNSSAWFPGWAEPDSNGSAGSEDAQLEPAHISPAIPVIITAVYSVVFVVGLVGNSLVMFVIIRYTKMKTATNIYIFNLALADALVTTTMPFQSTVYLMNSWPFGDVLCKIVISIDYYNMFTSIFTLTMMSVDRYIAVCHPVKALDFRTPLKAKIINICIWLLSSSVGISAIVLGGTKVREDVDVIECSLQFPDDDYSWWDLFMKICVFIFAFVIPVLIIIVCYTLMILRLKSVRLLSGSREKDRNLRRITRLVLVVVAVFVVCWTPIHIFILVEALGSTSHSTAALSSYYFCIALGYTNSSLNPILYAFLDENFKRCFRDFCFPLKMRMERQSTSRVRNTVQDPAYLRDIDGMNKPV

Assays:
[1] = target: T1, human MOR (Homo sapiens, UniProt P35372)
[2] = target: T2, human KOR (Homo sapiens, UniProt P41145)
[3] = target: T1, human MOR; type: binding; design: expressed in transfected cells; membranes
[4] = target: T2, human KOR; type: binding; design: expressed in transfected cells; membranes
[5] = target: T1, human MOR; type: biochemical; design: expressed in transfected cells; membranes
[6] = target: T2, human KOR; type: biochemical; design: expressed in transfected cells; membranes

Oc1ccc2c3c1O[C@H]1[C@H](O)CC[C@@]4(O)[C@@H](C2)N(CC2CC2)CC[C@]314 [6β-naltrexol]
antagonistic property against agonist-stimulated [35S]GTPγS binding [1]: full antagonists | antagonistic property against agonist-stimulated [35S]GTPγS binding [2]: full antagonists | binding affinity, fold higher (more potent) than naloxone [3]: 2- to 5 fold | binding affinity, fold less potent than naltrexone [3]: 2 fold | binding affinity, fold higher than naloxone [4]: 2- to 5 fold | binding affinity, fold less potent than naltrexone [4]: 2 fold | effect on basal [35S]GTPγS binding [5]: no inverse agonist effects; also recorded: did not decrease | inhibition of the inverse agonist effect of naloxone [5]: inhibited | pharmacological property at MOR [5]: neutral antagonists regardless of agonist pretreatment | effect on basal [35S]GTPγS binding [6]: no inverse agonist effects; also recorded: decreased; also recorded: but not morphine-pretreated | inhibition of the inverse agonist effect of naloxone [6]: inhibited | pharmacological property at KOR [6]: turned into inverse agonist

Entries after “also recorded” stand apart in the source; their conditions may differ.
